Data as given in PubChem BioAssay AID652231 (Johns Hopkins Ion Channel Center, 2013).
Only a part is listed here, and it is no random draw. Activity calls are given as the source filed them.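 The calls were made as follows: active = duplicate-averaged calcium signal over 20% of the ionomycin maximum, relative to buffer baseline; inactive = the rest.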

experiment: calcium mobilization in TMEM16A/YFP HEK293 cells, confirmation, counter-screen for TMEM16A inhibitor project (AID 652231); details: TMEM16A/YFP HEK293, Fluo4 calcium mobilization; at 10 µM; active compounds read high;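 also: each well's signal is peak minus trough fluorescence divided by its pre-addition baseline; 0% = buffer wells and 100% = ionomycin wells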

SMILES	calcium response (% of ionomycin)
CCc1nc2c(n1)c1c(non1O)c1c2no[n+]1[O-]	inactive: 0%
